Results reported in publication PMC467105, “A comprehensive investigation of the anion inhibition profile of a β-carbonic anhydrase from Acinetobacter baumannii for crafting innovative antimicrobial treatments” (Journal of Enzyme Inhibition and Medicinal Chemistry, 2024).

Protein sequences, listed by entry. Tags and fused reporters are not part of them. Residues count along the entry.
UniProt A0A7U3Y636, 1-204: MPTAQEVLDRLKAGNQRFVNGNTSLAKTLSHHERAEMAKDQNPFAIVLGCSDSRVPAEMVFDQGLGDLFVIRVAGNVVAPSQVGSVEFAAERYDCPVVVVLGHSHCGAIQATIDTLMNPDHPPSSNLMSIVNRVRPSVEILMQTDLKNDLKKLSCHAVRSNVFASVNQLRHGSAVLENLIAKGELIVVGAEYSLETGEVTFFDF

Legend:
[1] = biological target: β-AbauCA (Acinetobacter baumannii β-CA, CanB) (Acinetobacter baumannii, UniProt A0A7U3Y636); format: biochemical
[2] = biological target: PgiCAβ (Porphyromonas gingivalis β-CA); design: method as in PMID 24146373; conditions: cited from earlier work

Question: With fluorosulfonate [FSO3^-] as the compound, how does the Ki [1] read?
Answer: 29.3 mM

Question: For `O=[Te](=O)(O)O` [TeO4^2-, tellurate], which Ki [2] is on record?
Answer: 3.9 mM
